Data reported in patent US10072001B2, “Tank-binding kinase inhibitor compounds” (Gilead Sciences, Inc., priority 2014, dated 2018).
One block for each compound: values may come before it.

The chains behind the UniProt entries cited, without tags or fusion partners. Where a name states a change or a piece, a line headed by the entry shows the natural chain unless it says otherwise.
UniProt Q14164: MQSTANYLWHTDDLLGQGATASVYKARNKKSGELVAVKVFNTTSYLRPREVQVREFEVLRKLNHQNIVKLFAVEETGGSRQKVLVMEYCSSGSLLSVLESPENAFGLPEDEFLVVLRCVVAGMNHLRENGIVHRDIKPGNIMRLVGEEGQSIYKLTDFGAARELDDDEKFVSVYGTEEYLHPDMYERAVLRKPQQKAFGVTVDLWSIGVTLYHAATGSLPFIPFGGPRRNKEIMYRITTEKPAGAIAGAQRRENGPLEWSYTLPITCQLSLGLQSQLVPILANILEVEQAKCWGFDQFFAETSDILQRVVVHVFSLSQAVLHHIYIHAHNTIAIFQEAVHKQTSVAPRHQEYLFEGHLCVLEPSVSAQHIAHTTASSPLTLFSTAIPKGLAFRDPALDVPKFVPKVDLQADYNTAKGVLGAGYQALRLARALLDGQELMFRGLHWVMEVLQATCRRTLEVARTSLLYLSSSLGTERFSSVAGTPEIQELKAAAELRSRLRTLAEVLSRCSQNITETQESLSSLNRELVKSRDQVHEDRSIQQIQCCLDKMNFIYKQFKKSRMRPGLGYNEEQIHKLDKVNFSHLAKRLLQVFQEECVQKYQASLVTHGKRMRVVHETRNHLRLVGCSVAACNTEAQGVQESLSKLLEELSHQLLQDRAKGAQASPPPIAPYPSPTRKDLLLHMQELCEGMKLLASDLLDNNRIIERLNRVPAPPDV
UniProt Q9UHD2: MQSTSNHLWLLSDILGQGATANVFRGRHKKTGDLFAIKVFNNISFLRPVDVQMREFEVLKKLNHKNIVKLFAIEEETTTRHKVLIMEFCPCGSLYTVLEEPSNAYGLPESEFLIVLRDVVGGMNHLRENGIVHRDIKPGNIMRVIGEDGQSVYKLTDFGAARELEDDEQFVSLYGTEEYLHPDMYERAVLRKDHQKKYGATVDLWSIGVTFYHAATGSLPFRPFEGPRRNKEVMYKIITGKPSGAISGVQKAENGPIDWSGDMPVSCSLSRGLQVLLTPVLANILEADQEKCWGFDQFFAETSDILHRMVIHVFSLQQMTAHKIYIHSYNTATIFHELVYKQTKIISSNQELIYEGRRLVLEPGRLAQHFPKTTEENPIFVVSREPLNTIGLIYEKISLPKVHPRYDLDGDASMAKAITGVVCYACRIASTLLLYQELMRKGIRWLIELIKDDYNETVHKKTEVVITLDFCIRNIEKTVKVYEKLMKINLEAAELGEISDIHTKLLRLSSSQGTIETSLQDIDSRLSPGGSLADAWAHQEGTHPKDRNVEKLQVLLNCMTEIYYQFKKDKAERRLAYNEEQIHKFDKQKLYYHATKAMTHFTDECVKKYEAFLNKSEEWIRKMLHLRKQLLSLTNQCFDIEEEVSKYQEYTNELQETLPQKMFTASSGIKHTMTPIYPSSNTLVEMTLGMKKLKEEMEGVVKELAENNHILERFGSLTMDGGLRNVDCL

Experiments:
IKKε = IKKε (Homo sapiens (Human), UniProt Q14164); test: TR-FRET kinase assay, IKKε; format: biochemical; conditions: full length recombinant IKKε 0.3 nM, 2x Km ATP, 1 μM peptide, 240 min at 25° C.; geometric mean of minimum four determinations
Excerpt: Biological Assay for TBK1 and IKKs:

TBK1 = TBK1 (Homo sapiens (Human), UniProt Q9UHD2); test: TR-FRET kinase assay, TBK1; conditions: read-out: TBK1-IC50; full length recombinant TBK1 2.5 nM, 2x Km ATP, 1 μM peptide, 240 min at 25° C.; geometric mean of minimum four determinations

- IC50 (IKKε): 41 nM
Compound: COc1ccc(-c2cc3c(-c4ccc(OC5CCOCC5)c(C#N)c4)ccnc3[nH]2)cc1OC [Example 1, 5-(2-(3,4-dimethoxyphenyl)-1H-pyrrolo[2,3-b]pyridin-4-yl)-2-((tetrahydro-2H-pyran-4-yl)oxy)benzonitrile]

- IC50 (TBK1): 1.46 nM
Compound: N#Cc1cc(-c2ncnc3[nH]c(C4=CCC5(CC4)OCCO5)cc23)ccc1OC1CCN(C(=O)CO)CC1 [Example 175, 5-(6-(1,4-dioxaspiro[4.5]dec-7-en-8-yl)-7H-pyrrolo[2,3-d]pyrimidin-4-yl)-2-((1-(2-hydroxyacetyl)piperidin-4-yl)oxy)benzonitrile]

- IC50 (IKKε): 47 nM
- IC50 (TBK1): 32.7 nM
Compound: N#Cc1cc(-c2ncnc3[nH]c(-c4cncc(N)n4)cc23)ccc1OC1CCOCC1 [Example 269, 5-(6-(6-aminopyrazin-2-yl)-7H-pyrrolo[2,3-d]pyrimidin-4-yl)-2-((tetrahydro-2H-pyran-4-yl)oxy)benzonitrile]

- IC50 (IKKε): 139 nM
Compound: N#Cc1cc(-c2ccnc3[nH]c(C#CC4CCOCC4)cc23)ccc1OC1CCOCC1 [Example 35, 5-(2-((tetrahydro-2H-pyran-4-yl)ethynyl)-1H-pyrrolo[2,3-b]pyridin-4-yl)-2-((tetrahydro-2H-pyran-4-yl)oxy)benzonitrile]

- IC50 (IKKε): 16.1 nM
Compound: N#Cc1cc(-c2ccnc3[nH]c(-c4cncc(N)n4)cc23)ccc1OC1CCOCC1 [Example 73, 5-(2-(6-aminopyrazin-2-yl)-1H-pyrrolo[2,3-b]pyridin-4-yl)-2-((tetrahydro-2H-pyran-4-yl)oxy)benzonitrile]

- IC50 (IKKε): 1.5 nM
- IC50 (TBK1): 1.5 nM
Compound: N#Cc1cc(-c2ccnc3[nH]c(-c4ccc(CN5CCOCC5)cc4)cc23)ccc1OC1CCOCC1 [Example 2, 5-(2-(4-(morpholinomethyl)phenyl)-1H-pyrrolo[2,3-b]pyridin-4-yl)-2-((tetrahydro-2H-pyran-4-yl)oxy)benzonitrile]

Further lines, the compound ahead of its results:

Compound: N#CCC(=O)N1CCN(c2ccc(-c3cc4c(-c5ccc(OC6CCOCC6)c(C#N)c5)ccnc4[nH]3)cc2)CC1 [Example 57, 5-(2-(4-(4-(2-cyanoacetyl)piperazin-1-yl)phenyl)-1H-pyrrolo[2,3-b]pyridin-4-yl)-2-((tetrahydro-2H-pyran-4-yl)oxy)benzonitrile]
- IC50 (TBK1): 1.46 nM

Compound: N#Cc1cc(-c2ccnc3[nH]c(-c4ccc(N5CC6(COC6)C5)cc4)cc23)ccc1OC1CCOCC1 [Example 46, 5-(2-(4-(2-oxa-6-azaspiro[3.3]heptan-6-yl)phenyl)-1H-pyrrolo[2,3-b]pyridin-4-yl)-2-((tetrahydro-2H-pyran-4-yl)oxy)benzonitrile]
- IC50 (TBK1): 4.49 nM

Compound: N#Cc1cc(-c2ccnc3[nH]c(-c4ccc(C5(C#N)CC5)cc4)cc23)ccc1OC1CCOCC1 [Example 67, 5-(2-(4-(1-cyanocyclopropyl)phenyl)-1H-pyrrolo[2,3-b]pyridin-4-yl)-2-((tetrahydro-2H-pyran-4-yl)oxy)benzonitrile]
- IC50 (IKKε): > 1000 nM
- IC50 (TBK1): 5.56 nM

Compound: N#Cc1cc(-c2ncnc3[nH]c(-c4ccc(N5CCN(CC(F)F)CC5)cc4)cc23)ccc1OC1CCN(C(=O)CO)CC1 [Example 264, 5-(6-(4-(4-(2,2-difluoroethyl)piperazin-1-yl)phenyl)-7H-pyrrolo[2,3-d]pyrimidin-4-yl)-2-((1-(2-hydroxyacetyl)piperidin-4-yl)oxy)benzonitrile]
- IC50 (IKKε): 2.61 nM
